The values below come from paper PMC6279831, “Reconstructing the evolutionary history of F420-dependent dehydrogenases” (Scientific Reports, 2018).

Amino acid sequences for entries named in this document (tags omitted). Residues count along the entry.
UniProt A0A010YY07, 1-332: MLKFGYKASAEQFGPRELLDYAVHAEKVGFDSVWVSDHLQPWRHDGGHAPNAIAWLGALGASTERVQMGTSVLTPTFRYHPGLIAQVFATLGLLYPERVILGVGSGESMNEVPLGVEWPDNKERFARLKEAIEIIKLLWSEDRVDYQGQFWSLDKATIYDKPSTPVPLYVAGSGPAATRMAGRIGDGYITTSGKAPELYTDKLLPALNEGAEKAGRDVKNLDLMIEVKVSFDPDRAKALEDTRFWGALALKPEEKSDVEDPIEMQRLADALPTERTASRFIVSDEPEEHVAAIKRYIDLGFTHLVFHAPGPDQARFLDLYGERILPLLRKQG

The target of one assay is FGD-Cryar (FSD-Cryar) (Cryptosporangium arvum, UniProt A0A010YY07). The experiment in a line: fluorescence quenching of cofactor (ex […] nm, em […] nm), one-site fit. Particulars: read-out: FGD-Cryar (FSD-Cryar) / kcat [s^-1]; 0.1 µM cofactor, 25 °C; apparent KD.
For the next assay, the system named is AncD1. The description is as above. As to conditions: read-out: AncD1 / kcat [s^-1]; 0.1 µM cofactor, 25 °C; apparent KD.

Take `C[C@H](OP(=O)(O)OC[C@@H](O)[C@@H](O)[C@@H](O)Cn1c2cc(=O)ccc-2cc2c(=O)[nH]c(=O)[nH]c21)C(=O)N[C@@H](CCC(=O)N[C@@H](CCC(=O)O)C(=O)O)C(=O)O`: the Kd is 2200 nM on FGD-Cryar (FSD-Cryar) and 1600 nM with AncD1.
